Data: ChEMBL document CHEMBL5360566, “Design, synthesis and biological evaluation of novel indolin-2-one derivatives as potent second-generation TRKs inhibitors” (Eur J Med Chem, 2023)
Activity calls are given as the source filed them. The calls are words filed in the database; no cut-off is given here.

Chains of the proteins cited; added tags and fusions are not shown.
UniProt Q16620, whole entry, looked up: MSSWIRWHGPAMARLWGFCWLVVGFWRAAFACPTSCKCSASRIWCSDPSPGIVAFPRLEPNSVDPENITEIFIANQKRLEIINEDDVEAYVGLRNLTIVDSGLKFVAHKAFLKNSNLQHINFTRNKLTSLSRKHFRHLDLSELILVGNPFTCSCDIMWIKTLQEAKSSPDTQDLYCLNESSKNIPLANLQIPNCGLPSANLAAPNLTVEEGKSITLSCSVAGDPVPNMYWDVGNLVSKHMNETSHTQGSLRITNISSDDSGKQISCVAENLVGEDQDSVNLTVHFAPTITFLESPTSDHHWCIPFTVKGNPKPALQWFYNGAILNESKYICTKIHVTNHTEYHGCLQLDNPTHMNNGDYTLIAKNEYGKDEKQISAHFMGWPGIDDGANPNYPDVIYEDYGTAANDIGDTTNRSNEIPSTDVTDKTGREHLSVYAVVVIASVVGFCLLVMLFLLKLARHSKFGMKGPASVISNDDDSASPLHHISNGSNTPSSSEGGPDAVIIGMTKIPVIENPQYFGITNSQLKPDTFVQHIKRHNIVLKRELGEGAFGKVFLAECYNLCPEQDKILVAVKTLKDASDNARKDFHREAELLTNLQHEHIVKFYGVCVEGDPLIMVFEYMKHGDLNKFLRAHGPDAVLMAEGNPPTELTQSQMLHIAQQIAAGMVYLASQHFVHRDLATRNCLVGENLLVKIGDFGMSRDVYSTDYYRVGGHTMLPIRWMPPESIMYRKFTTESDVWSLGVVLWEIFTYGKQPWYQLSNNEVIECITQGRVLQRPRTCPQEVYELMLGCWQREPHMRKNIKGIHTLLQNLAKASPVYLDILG

Target: BDNF/NT-3 growth factors receptor (Homo sapiens) (UniProt Q16620)
Assay: Inhibition of human recombinant His-tagged TRKB (526 to 838 residues) expressed in insect cells at 1 uM relative to control
Details: Insect cell

COc1ccc(F)cc1CNc1ccc2c(c1)/C(=C/c1cnc[nH]1)C(=O)N2
inhibition: Active
